Usually pIC50 stands for the IC50 on a negative log10 scale, so that one unit is a factor of ten.

pIC50: −log10 of the molar value.

The target in this experiment is T1, Sialidase-4 (Homo sapiens, UniProt Q8WWR8).
T1 sequence (Q8WWR8 whole entry): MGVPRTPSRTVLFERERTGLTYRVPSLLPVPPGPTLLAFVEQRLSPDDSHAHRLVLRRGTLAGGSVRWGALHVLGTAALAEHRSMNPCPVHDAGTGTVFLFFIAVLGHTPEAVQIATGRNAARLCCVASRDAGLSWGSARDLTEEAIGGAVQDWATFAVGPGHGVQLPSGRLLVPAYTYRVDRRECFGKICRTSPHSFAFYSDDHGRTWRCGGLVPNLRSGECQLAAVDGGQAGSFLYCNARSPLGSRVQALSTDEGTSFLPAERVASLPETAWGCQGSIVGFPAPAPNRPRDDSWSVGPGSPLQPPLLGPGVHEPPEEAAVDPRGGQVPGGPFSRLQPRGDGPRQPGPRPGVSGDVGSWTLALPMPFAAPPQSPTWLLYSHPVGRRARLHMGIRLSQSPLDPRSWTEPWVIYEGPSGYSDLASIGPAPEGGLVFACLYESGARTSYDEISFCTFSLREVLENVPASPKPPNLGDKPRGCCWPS
The experiment can be described thus: Inhibition of Homo sapiens (human) NEU4 expressed in HEK293 cells using 4MU-NeuAc as substrate after 10 to 30 min by fluorometric analysis. Format: cell-based.

As to `CC(=O)N[C@H]1[C@H]([C@@H](O)[C@@H](O)CO)OC(C(=O)O)=C[C@@H]1O`, the pIC50 is 4.15.

The values are drawn from ChEMBL document CHEMBL3045655, “Use of structure-based virtual screening in the investigation of novel human sialidase inhibitors” (Med Chem Res, 2010).
